Test results taken from patent publication US8952162B2, “Triazolopyridines as phosphodiesterase inhibitors for treatment of dermal diseases” (Leo Pharma A/S, priority 2008, dated 2015).

By UniProt entry, the sequences of proteins in these tests, tags left out. Residues count along the entry.
UniProt Q08499, 1-673 isoform 2: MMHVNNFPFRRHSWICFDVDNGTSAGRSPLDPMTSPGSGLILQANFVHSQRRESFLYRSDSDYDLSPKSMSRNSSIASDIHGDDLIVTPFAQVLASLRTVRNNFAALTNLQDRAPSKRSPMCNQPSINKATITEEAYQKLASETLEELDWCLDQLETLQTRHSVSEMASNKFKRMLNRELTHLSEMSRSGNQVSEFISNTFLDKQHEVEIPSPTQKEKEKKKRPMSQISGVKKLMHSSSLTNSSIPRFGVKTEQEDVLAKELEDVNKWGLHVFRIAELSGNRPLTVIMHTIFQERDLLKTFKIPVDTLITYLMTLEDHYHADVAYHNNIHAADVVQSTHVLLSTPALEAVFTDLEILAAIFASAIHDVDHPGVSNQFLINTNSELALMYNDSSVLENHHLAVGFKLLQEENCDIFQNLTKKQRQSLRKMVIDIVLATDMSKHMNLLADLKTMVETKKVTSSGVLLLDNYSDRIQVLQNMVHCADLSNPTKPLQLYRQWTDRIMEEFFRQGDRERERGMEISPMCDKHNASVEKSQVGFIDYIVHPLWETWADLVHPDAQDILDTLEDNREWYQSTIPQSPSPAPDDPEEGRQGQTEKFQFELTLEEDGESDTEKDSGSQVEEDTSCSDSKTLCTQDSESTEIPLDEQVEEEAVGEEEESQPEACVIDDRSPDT

These compounds were tested against Human recombinant PDE4 (Genbank accession no NM—006203) (Homo sapiens, UniProt Q08499) (assay: PDE4 assay (SPA, cAMP cleavage)). Conditions: read-out: PDE4 IC50 range; Example 52; human recombinant PDE4, 1 hour incubation, cAMP 1×10^-5M, test compound up to 10 μM.

`COc1ccc(-c2cccc(C(N)=O)c2)n2nc(C3CC3)nc12` was tested. Which IC50 did it give?
Its IC50 is less than 500 nM.

`COc1ccc(-c2cccc(C(=O)N(C)C)c2)n2nc(C3CC3)nc12` was tested. Which IC50 did it give?
Its IC50 is 500 to 1000 nM.

How did the IC50 turn out when `COc1ccc(-c2cccc(CO)c2)n2nc(C3CC3)nc12` was run?
The IC50 was less than 500 nM.

Which IC50 does the source give for `COc1ccc(-c2ccc(C(=O)N(C)C)cc2)n2nc(C3CC3)nc12` here?
The IC50 was greater than 1000 nM.

Which IC50 does the source give for `CNC(=O)c1ccc(-c2ccc(OC)c3nc(C4CC4)nn23)cc1` here?
Its IC50 is greater than 1000 nM.
